Drawing on ChEMBL document CHEMBL1133118 (J Med Chem, 2000), this text covers Ki, IC50 and Ratio for 1 compound.

By UniProt entry, the sequences of proteins in these tests, tags left out. Where a name states a change or a piece, a line headed by the entry shows the natural chain unless it says otherwise.
UniProt P0DMS8, whole entry: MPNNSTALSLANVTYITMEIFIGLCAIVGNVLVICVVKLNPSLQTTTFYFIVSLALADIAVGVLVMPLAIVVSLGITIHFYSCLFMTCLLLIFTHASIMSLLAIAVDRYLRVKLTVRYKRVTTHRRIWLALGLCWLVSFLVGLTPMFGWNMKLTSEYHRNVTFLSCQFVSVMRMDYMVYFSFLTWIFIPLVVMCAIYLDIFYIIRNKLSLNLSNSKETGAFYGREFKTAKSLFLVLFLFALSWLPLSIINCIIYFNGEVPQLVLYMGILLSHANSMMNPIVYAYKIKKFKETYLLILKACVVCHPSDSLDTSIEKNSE
UniProt P29275: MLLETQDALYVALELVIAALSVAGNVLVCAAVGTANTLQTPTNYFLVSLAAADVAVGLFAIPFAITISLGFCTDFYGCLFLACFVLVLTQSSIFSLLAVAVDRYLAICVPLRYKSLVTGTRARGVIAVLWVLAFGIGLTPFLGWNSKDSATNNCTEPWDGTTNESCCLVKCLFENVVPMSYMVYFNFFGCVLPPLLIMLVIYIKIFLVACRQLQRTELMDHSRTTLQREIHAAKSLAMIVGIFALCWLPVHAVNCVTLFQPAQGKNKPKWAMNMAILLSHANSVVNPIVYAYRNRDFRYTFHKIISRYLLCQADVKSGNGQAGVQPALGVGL
UniProt P30542, whole entry, looked up: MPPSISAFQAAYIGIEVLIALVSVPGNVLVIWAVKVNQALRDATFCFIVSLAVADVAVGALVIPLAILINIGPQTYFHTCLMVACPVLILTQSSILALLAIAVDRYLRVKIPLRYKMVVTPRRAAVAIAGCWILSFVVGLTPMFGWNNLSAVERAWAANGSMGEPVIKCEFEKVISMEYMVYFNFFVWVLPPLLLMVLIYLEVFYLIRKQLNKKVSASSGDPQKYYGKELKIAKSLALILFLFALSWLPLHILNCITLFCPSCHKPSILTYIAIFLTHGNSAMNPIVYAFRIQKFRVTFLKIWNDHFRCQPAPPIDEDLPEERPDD

The target in assay [1] is T1, Adenosine receptor A3 (Homo sapiens, UniProt P0DMS8). Put plainly: biochemical.
In assay [2] the target is T1, Adenosine receptor A3. The assay can be described thus: Inhibition of cAMP accumulation in CHO cells expressing human adenosine A3 receptor; range 4.4-6.5. Format: functional, cell-based. (In general: Cyclic AMP is a second messenger, typically raised through Gs and lowered through Gi signalling.)
The target of assay [3] is Adenosine receptors; A2b & A3 (Homo sapiens) (UniProt P29275+P0DMS8). The assay can be described thus: Ratio of binding affinity of human A2B receptor to that of human A3 receptor. Format: protein assay. In a few lines: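 Ki ratio, n=3-6, 6–8 concentrations. A2B in HEK-293 membranes (20 μg): 40 nM [3H]DPCPX, 50 mM Tris HCl, 10 mM MgCl2, 1 mM EDTA, 0.1 mM benzamidine pH 7.4, 2 IU/mL adenosine deaminase, 60 min at 25 °C, nonspecific with 100 μM NECA. A3 in CHO membranes (50 μg): 1 nM [3H]MRE3008-F20, 120 min at 4 °C.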

Assay [4] deals with Adenosine receptors; A1 & A3 (Homo sapiens) (UniProt P30542+P0DMS8). Put plainly: Ratio of binding affinity of human A1 receptor to that of human A3 receptor. In kind it is protein assay. An outline of the steps: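 Ki ratio from displacement in CHO membranes, 6–8 concentrations, n=3-6, filtration counting. A1: 1 nM [3H]DPCPX, 50 μg protein, 120 min at 25 °C, nonspecific with 10 μM CHA. A3: 1 nM [3H]MRE3008-F20, 50 μg protein, Tris/10 mM MgCl2 pH 7.4, 120 min at 4 °C, nonspecific with 1 μM MRE3008-F20.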

What is called Ki is a measure of affinity in units of concentration, obtained from inhibition or displacement. The low end stands for a stronger hold on the target, the high end for a looser hold on the target. What is called IC50 is the point on the concentration scale where inhibition reaches its midpoint. On to `CCCn1cc2c(nc(NC(=O)Nc3ccc(OC)cc3)n3nc(-c4ccco4)nc23)n1`, for which, in assay [1], the affinity, expressed as Ki, was 0.8 nM. Also, 5.2 nM corresponded to half-maximal inhibition in assay [2] (IC50). The Ratio in assay [3] was found to be 2570; in assay [4] it was 1500.
